Values quoted from earlier work in patent publication US12283350B2.

Chains of the proteins cited; added tags and fusions are not shown.
UniProt P50750, whole entry: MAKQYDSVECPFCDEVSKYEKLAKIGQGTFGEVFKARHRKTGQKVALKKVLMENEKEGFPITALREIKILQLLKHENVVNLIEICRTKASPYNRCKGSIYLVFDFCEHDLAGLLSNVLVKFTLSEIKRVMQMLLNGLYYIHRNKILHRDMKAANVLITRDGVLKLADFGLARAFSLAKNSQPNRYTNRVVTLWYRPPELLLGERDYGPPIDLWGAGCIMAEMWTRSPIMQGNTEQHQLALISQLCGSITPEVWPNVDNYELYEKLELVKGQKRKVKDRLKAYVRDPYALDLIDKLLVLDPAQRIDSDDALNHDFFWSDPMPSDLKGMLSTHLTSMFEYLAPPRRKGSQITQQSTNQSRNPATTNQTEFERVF
UniProt O60563, whole entry partner: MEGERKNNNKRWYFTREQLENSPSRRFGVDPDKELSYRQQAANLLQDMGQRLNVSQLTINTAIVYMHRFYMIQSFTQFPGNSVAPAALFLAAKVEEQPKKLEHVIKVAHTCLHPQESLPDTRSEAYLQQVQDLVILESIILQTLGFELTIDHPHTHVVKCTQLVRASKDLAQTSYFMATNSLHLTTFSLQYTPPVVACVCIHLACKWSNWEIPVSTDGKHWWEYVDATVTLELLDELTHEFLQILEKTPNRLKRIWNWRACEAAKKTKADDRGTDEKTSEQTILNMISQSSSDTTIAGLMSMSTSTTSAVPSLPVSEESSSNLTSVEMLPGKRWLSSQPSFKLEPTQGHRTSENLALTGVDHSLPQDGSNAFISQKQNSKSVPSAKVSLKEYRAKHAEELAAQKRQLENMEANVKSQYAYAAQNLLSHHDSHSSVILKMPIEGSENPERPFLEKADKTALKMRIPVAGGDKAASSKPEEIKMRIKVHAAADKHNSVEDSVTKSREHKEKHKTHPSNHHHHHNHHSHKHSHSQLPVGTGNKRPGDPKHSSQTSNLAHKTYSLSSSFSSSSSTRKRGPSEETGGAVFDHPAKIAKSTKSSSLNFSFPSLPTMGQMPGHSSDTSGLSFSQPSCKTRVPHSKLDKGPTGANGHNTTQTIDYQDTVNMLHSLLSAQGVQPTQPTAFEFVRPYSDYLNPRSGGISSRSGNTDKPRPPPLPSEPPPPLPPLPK

Molecular target: CDK9 (Homo sapiens, UniProt P50750)
Details: held-out literature compounds regenerated by the generative model (FIG. 53)

Structure (SMILES) | measured pIC50
CN1CCC(c2c(O)cc(O)c3c(=O)cc(/C=C/c4c(Cl)cccc4Cl)oc23)C(O)C1 (stereo not drawn) | 8.70
COc1ccccc1-c1cc(Nc2ccccn2)ncn1 | 7.44
O=C(Nc1cc(-c2cncc(NCC3CCOCC3)n2)c(Cl)cn1)C1CCCNC1 (stereo not drawn) | 8.05
